Assay results as given in patent publication US6475746B1, “Method of obtaining a composition comprising a 5-HT1D selective compound” (Synaptic Pharmaceutical Corporation, priority 1990, dated 2002).

Amino acid sequences for entries named in this document (tags omitted).
UniProt P28222, whole entry: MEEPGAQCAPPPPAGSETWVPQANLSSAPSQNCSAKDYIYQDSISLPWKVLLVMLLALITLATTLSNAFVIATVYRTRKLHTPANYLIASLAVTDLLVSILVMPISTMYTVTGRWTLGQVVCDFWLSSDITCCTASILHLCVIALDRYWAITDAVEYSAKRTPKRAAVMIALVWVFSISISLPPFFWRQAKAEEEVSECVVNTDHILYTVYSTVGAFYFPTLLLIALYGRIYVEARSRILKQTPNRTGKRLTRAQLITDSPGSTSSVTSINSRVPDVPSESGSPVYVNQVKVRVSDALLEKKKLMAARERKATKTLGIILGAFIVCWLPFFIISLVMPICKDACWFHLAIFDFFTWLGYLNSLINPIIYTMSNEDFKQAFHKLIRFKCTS
UniProt P11614, whole entry: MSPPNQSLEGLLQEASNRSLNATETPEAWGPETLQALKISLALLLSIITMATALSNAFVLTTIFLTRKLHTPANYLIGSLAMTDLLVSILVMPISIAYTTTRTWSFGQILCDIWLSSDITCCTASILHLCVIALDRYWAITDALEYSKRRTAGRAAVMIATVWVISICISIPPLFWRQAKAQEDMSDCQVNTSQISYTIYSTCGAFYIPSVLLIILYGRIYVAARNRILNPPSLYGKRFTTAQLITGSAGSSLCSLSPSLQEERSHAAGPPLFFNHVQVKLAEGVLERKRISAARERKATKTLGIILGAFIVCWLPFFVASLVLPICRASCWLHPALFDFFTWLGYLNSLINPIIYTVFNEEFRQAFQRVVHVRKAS

Legend:
[1] = target: Cloned Human 5-HT1D-2 (Homo sapiens, UniProt P28222); assay: [3H]5-HT binding to cloned human 5-HT1D-2 (gene 11) in transfected cell membranes; settings: read-out: Estimated equilibrium dissociation constants (Ki values); [3H]5-HT displacement; membranes of LM (tk−) cells stably transfected; Cheng-Prusoff
[2] = target: Cloned Canine 5-HT1D-1 (RDC4) (Canis lupus familiaris, UniProt P11614); assay: [3H]5-HT binding to cloned canine 5-HT1D-1 (RDC4) in transfected cell membranes

SMILES	Ki [1] [nM]	Ki [2] [nM]
COC(=O)[C@@H]1[C@H]2C[C@H]3c4[nH]c5ccccc5c4CCN3C[C@@H]2CC[C@@H]1O [Yohimbine]	27 ± 3	–
CNS(=O)(=O)Cc1ccc2[nH]cc(CCN(C)C)c2c1 [Sumatriptan]	–	1.6 ± 0.2
